# Experimental data reported in patent US11066399B2, “Ferroportin inhibitors” (Vifor (International) AG, priority 2015, dated 2021).
# Counter-ions that a name gives are not always drawn.
# Test system: anemic Wistar rats
# Assay: Prevention of iron absorption in anemic rats
# Type: in vivo
# Settings: Rattus norvegicus, 3 h, Dose 30 mg/kg oral, 1 h before 0.5 mg/kg ferrous sulfate, read-out: Serum Iron Inhibition (%) at 3 h
# Description: To assess the in vivo efficacy of ferroportin (Fpn) inhibitors to block iron absorption, a series of Fpn inhibitors were tested in an anemic rat model for iron absorption. Wistar rats (3-4 weeks old, n=5, Janvier Labs) were fed a low iron diet (Provimi-Kliba, Cat. 2039) until their hemoglobin (Hb) values reach 7-8 g/dl one day before dosing of the Fpn inhibitor compounds. One hour before oral application of 0.5 mg/kg of ferrous sulfate, test compounds formulated in methyl cellulose or Cremophor were dosed orally. Blood samples were taken by tail vein puncture one hour before administration of iron (−1 h), immediately after dosing of the Fpn inhibitors (0 h) and one hour (1 h), three hours (3 h) and occasionally up to 6 hours (6 h) after dosing of the test compounds. Serum iron levels were measured (Abbott Diagnostics, Cat. 6K95) and inhibition of the rise of serum iron three hours after dosing of the test compound was calculated as a measure for efficacy of the Fpn inhibitors in blocking iron absorption (Table 7).
smiles,measurement,value
"Cc1cccnc1CNC(=O)c1csc(CCNCc2nc3ccccc3[nH]2)n1 [Example Compound No. 55, 2-{2-[(1H-1,3-Benzodiazol-2-ylmethyl)amino]ethyl}-N-[(3-methylpyridin-2-yl)methyl]-1,3-thiazole-4-carboxamide Trihydrochloride]",inhibition in vivo at 30 mg/kg,89%
